{
  "sequences": {"note": "The chains behind the UniProt entries cited, without tags or fusion partners.", "UniProt P46063, whole entry": "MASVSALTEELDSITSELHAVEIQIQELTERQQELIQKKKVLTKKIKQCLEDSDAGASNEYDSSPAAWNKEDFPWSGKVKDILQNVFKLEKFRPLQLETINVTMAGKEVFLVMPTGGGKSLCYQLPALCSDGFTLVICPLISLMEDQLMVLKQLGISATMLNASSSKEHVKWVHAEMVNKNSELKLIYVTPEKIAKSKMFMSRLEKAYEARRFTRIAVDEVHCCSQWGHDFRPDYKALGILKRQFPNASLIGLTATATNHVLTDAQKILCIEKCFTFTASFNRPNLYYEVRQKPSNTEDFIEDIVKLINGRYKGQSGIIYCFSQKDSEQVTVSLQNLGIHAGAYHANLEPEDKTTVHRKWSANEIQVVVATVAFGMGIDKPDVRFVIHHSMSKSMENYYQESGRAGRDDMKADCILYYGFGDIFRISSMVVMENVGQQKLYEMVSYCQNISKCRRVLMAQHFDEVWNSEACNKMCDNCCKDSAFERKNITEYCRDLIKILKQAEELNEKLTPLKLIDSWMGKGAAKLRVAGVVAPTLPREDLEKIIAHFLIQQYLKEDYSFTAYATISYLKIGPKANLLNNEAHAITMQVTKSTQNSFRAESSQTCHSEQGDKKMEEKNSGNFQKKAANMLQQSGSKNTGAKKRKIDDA"},
  "source": "PubChem BioAssay AID2549",
  "about": "(National Center for Advancing Translational Sciences (NCATS), 2010)",
  "note": "The entries are a selection whose mix differs from that of the whole data set. Active and inactive are the calls of the source. Calls come from the whole dose curve; as a rule, active = well fitted inhibition curve with a large enough effect; inconclusive = small, poorly fitted or top-dose-only effect; inactive = flat fitted curve, though single readings scatter.",
  "data": [
    {"biological_target": "ATP-dependent DNA helicase Q1 (Homo sapiens) (UniProt P46063)", "test": "qHTS Assay for Inhibitors of RecQ-Like Dna Helicase 1 (RECQ1); note: nearly all actives have a fitted effect of over 30% in size;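 for activity, negative = inhibition: plate controls were vehicle for no effect and no enzyme for full effect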", "details": "RECQ1 DNA unwinding, red fluorescence kinetic read; activity, negative = inhibition: at 57.3 µM (top of the series)", "description": "Survival of cells and the faithful propagation of the genome depend on elaborate mechanisms of detecting and repairing DNA damage. Treatment of advanced cancer relies on radiation therapy or chemotherapy, which kill cancer cells by causing extensive DNA damage. It is often found, that cancer cells develop resistance to therapy through enhanced activity of DNA repair functions; this has led to an increased interest in developing drugs that interfere with DNA repair, which could sensitize cancer cells to conventional therapy.\nThis validation qHTS assay pertains to human RECQ1, which is important in resolving abnormal DNA structures formed during replication or homologous recombination. Shutting down the expression of RECQ1 leads to chromosomal instability and higher radiation sensitivity in cultured cells.\nThe validation assay was a fluorescence quenching based kinetic qHTS for RECQ1 Helicase DNA unwinding. The activity was measured as ATP-dependent separation of a 20-bp DNA duplex extended by 30-nt single-stranded tails (forked duplex). […] Strand separation results in an increase in the fluorescence of TAMRA (excitation 525 nm, emission 598 nm). […]\nThree uL of reaction buffer (25 mM Tris-HCl (pH 8.0), 5 mM NaCl, 2 mM MgCl2, 1mM DTT, 0.01% Tween- 20, and 2.5 ug/ml poly(dI-dC), including enzyme (50 nM RECQ1T1), were dispensed into a 1536-well Greiner black assay plate via solenoid-valve based nanoliter dispensers. Compounds (23 nl each in columns 5-48) and control (23 nl each in column 2 as dose-response) were transferred via a Kalypsys pintool equipped with a 1536-pin array. The plates were incubated for 15 min at room temperature, and then 1 ul of substrates (200 nM DNA and 2 mM ATP, final concentrations) was added to start the reaction. The plate was transferred into a ViewLux high-throughput CCD imager where the reaction progress was measured in a discontinuous kinetic mode (two reads spaced 2 hours apart, with intermediate room temperature incubation of the covered assay plate) by using standard red-fluorescence optics (excitation filter 525 nm, emission filter 598 nm). […]", "values": [
      {"molecule": "O=[N+]([O-])C(Cl)(Cl)Cl", "activity, negative = inhibition": "inactive: -2.83%"},
      {"molecule": "CN(CCCl)CCCl", "activity, negative = inhibition": "inactive: 6.36%", "outcome": "inactive"}
    ]}
  ]
}
